Experimental data reported in PMC3401275 (International Journal of Pharmaceutics, 2012).

Target: T1, SMVT (Canis lupus familiaris, UniProt A0A8I3MY61)
T1 sequence (A0A8I3MY61 1-636): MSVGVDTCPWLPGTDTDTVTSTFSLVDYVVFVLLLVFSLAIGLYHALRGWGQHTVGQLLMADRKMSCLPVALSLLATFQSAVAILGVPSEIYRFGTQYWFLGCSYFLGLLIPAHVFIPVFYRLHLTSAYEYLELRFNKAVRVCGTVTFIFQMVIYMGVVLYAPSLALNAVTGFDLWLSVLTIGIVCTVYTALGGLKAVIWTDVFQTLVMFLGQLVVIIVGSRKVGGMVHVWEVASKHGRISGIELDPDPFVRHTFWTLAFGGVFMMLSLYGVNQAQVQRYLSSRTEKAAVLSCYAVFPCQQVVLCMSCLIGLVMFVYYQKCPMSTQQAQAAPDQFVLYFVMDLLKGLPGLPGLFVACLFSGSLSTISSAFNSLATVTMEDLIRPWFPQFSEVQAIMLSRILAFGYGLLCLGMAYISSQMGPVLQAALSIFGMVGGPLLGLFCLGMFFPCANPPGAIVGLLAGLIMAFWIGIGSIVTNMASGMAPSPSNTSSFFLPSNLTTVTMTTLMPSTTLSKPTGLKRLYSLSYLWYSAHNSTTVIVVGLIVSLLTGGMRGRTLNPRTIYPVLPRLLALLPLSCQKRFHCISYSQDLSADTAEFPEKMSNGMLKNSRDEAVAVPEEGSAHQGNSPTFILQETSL
Conditions: read-out: IC50 for inhibition of [3H] biotin uptake; MDCK-MDR1 cells, 0.1–100µM, 30 min

O=C(O)CCCC[C@@H]1SC[C@@H]2NC(=O)N[C@@H]21 [biotin, Biotin, reference compound]
IC50: 2930 ± 60 nM
